Our source for the reporter increase values is PubChem BioAssay AID1321 (The Scripps Research Institute Molecular Screening Center, 2008).

Protein sequences, listed by entry. Tags and fused reporters are not part of them.
UniProt P30291, whole entry K328M: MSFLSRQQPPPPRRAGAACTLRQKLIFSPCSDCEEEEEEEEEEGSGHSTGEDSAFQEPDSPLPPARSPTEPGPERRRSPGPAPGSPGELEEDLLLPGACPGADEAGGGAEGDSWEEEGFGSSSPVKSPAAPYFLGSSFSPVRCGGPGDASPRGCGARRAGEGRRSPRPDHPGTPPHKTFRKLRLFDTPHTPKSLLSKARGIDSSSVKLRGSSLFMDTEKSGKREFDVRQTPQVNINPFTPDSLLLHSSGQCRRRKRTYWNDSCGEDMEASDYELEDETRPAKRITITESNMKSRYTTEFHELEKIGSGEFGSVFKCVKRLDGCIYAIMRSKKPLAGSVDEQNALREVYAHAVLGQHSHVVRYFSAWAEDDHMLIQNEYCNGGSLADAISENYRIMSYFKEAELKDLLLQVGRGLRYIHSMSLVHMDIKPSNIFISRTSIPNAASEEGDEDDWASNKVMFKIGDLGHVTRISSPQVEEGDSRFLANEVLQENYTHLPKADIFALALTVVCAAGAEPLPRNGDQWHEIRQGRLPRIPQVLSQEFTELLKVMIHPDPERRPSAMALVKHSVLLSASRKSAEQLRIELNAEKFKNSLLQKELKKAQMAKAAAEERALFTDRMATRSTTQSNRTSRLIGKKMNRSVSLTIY

This is a selection; strong and weak results do not stand in their true shares. Some tests of the compounds listed are not included; inactive here does not mean inactive elsewhere. Calls of active or inactive are those of the source.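 How the source made its calls: active means activation above the mean of all tested compounds plus 3 SD, set per screening run (cut at about 8.8% in these data); inactive means the rest.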

The experiment deals with Wee1-like protein kinase (Homo sapiens) (UniProt P30291). In words: compounds stabilizing Wee1-luciferase fusion – cell-based, HeLa, Wee1K328M-luciferase, luminescence, primary screen (AID 1321).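 Further: cells exposed to compound for 20 h before luminescence read; 0% = DMSO alone and 100% = MG132 at 30 µM.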 The settings on record: HeLa Luc-Wee1K328M stability, at 5 µM, stronger effect = higher value, 100% = proteasome inhibitor MG132 effect.
For `O=C(NCC1(N2CCCCC2)CCCCC1)c1cc([N+](=O)[O-])ccc1Cl`, the reporter increase was inactive: -0.32%.

Regarding `CC(C)N1C(=O)CC2(CCN(CCOC(=O)C(O)(c3ccccc3)c3ccccc3)CC2)C1=O`, the reporter increase is inactive: -1.28%.

On to `CCN(CC)CC(C)C(C)OC(=O)C(O)(c1ccccc1)c1ccccc1` (stereo unspecified), for which the reporter increase is inactive: 0.93%.

In the case of `CN(C)C1CCCC1OC(=O)C(O)(c1ccccc1)c1ccccc1` (stereo unspecified), the reporter increase is inactive: 1.13%.

With `Cc1ccccc1C(=O)NCC1(N2CCCCC2)CCCCC1`, the reporter increase is inactive: -0.59%.

`CCN1CCCC(OC(=O)C2(O)c3ccccc3C=Cc3ccccc32)C1` (stereo unspecified): the reporter increase was inactive: 6.55%.

For `C=CCN1CCN(CCOC(=O)C(O)(c2ccccc2)c2ccccc2)CC1`, the reporter increase is inactive: -3.36%.

In the case of `COc1cccc(C(=O)NCC2(N3CCCCC3)CCCCC2)c1`, the reporter increase was inactive: -1.13%.

`O=C(OC1CN2CCC1CC2)C(CO)(c1ccccc1)c1ccccc1` (stereo unspecified): the reporter increase is inactive: 3.98%.

In the case of `CN(C)c1cccc(C(=O)NCC2(N(C)C)CCCCC2)c1`, the reporter increase was inactive: 2.03%.

On to `COc1ccc(Br)c(C(=O)NCC2(N3CCCCC3)CCCCC2)c1`, for which the reporter increase was inactive: 6.67%.
